# Conditions: mouse, human, pH 7.4
smiles,measurement,value
"c1ccc2c(-c3cnn4cc(-c5ccc(N6CCNCC6)nc5)cnc34)ccnc2c1 [compound 1, 4-(6-(6-(piperazin-1-yl)pyridin-3-yl)pyrazolo[1,5-a]pyrimidin-3-yl)quinoline]",cyanide adducts (reactive intermediate trapping with KCN),"a cyanide adduct, M432, was observed in both species"
same,major metabolism in the presence of liver cytosol (aldehyde oxidase-mediated oxidation),"extensively metabolized to an oxidized metabolite, M423c"

# Source: patent publication US10017516B2, “BMP inhibitors and methods of use thereof” (The Brigham and Women's Hospital, Inc., priority 2013, dated 2018)
